# Bioassay records (PubChem BioAssay)
# miR-21 reporter – miR-21 reporter, rising signal | HeLa miR-21 FLuc reporter, luciferase, 48 h | Potency, µM (top dose mostly 38.3 µM), inactives show at the top dose reporter change, positive = more light | 340,000 tested, under 10 active | AID 2288; active = well fitted rising curve with a large enough effect; inconclusive = small, poorly fitted or top-dose-only effect; inactive = no such curve, though single readings can be large or run the other way;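 further: % of control where 0% means no effect; miR-21 action dims this reporter so a rising signal means less miR-21 action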
#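 Using DMEM plus 10% FBS, HeLa miR-21-FLuc cells are incubated with test compounds (final up to about 40uM) for 48 hours; firefly luciferase signal is then imaged following reagent-mediated lysis.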
# Nrf2 inh – Nrf2 pathway inhibition | A549 ARE-Fluc reporter, luciferase luminescence, 18-24 h | Potency, µM (titrated, usually from 46 µM), without a hit: at the top dose activity change, negative = inhibition, usual class: inhibitors | 360,000 tested, 2.1% active; note: potency is the fitted concentration of half-maximal effect; % is set by controls: 0 for no effect and ±100 for the full control effect; nearly all actives have a fitted effect of over 60% in size
#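 A549 ARE_Fluc cells (5000/well, 5% FBS OPTI-MEM) pre-incubated 2 h, then treated with compounds 18-24 h at 37C/5% CO2 in concentration-response. CellTiter-Fluor viability read first; BugLite luciferase luminescence after 15 min at room temperature gives Nrf2 activity.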
# A549 tox – kills or reduces viability of A549 cells in Nrf2 counter-screen | Potency, µM (series often up to 46 µM), for inactives: at the top dose activity change, negative = cytotoxicity, most hits filed as inhibitors | A549 ARE-Fluc cells, CellTiter-Fluor viability, 18-24 h | 390,000 tested, 0.16% active; note: potency is the fitted concentration of half-maximal effect; % is set by controls: 0 for no effect and ±100 for the full control effect
#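 A549 ARE_Fluc cells in 5% FBS OPTI-MEM were exposed to compounds in concentration-response for 18-24 h at 37 deg C. Viability was read by CellTiter-Fluor fluorescence (Ex 405/Em 525) after 30 min, before the luciferase read.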
# GRP78 ERSR act – ER stress response induction in glioma; U87-MG GRP78 promoter luciferase reporter, 16 h; Potency, µM, inactives show at the highest dose activation, hits mostly activators; 420,000 tested, 0.02% active; AID 602332; note: potency is the fitted concentration of half-maximal effect; series mostly up to about 76 µM; % of control where 0% means no effect; nearly all actives have a fitted effect of over 35% in size
#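 Stably transfected U87-MG human glioma cells carrying a GRP78-based luminescent sensor were seeded at 1000 cells/well, pin-dosed with compounds and incubated 16 h. Luciferase reagent was then added, and end-point luminescence was read after 10 min at room temperature.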
# Nrf2 ARE act – activators of Nrf2 (ARE) signaling. Potency, µM (titrated, usually from 46.1 µM), for inactives: top-dose activation, most hits filed as activators. 410,000 tested, 0.31% active. AID 624171. AREc32 ARE-luciferase reporter (MCF7-derived line), luminescence, 24 h; note: potency is the fitted concentration of half-maximal effect; % of control where 0% means no effect; nearly all actives have a fitted effect of over 65% in size
#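 Reporter line AREc32 (ARE-Fluc), seeded overnight in OPTI-MEM with 5% FBS; compound pin-transferred, 24 hr at 37 deg C, 5% CO2; luminescent read-out.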
# Mito fusion act – blocks mitochondrial division or promotes mitochondrial fusion; S. cerevisiae fusion-defective mutant growth rescue, CellTiterGlo 48 h; Potency, µM (titrated, usually from 46.1 µM), inactives show at the top dose growth rescue (activation), usual class: activators; AID 485298; 320,000 tested, 0.23% active; note: potency is the fitted concentration of half-maximal effect; % of control where 0% means no effect; nearly all actives have a fitted effect of over 45% in size
#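 Luminescent cell viability in 1536-well qHTS format served as the measure of rescued growth in ts fusion-mutant S. cerevisiae cultured on non-fermentable YPEG for 48 hours at 37C.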
# Active calls of the source: *; ? = inconclusive; . = no result; [ ] = dose if it differs, or a comment. Only some compounds are listed: those with a hit (about 2.3% of all), similar ones and a draw of the others. Unless noted, calls come from the whole dose curve; as a rule, active = well fitted curve in the direction sought with a large enough effect; inconclusive = small, poorly fitted or top-dose-only effect, or another doubt; inactive = no such curve, though single readings can be large; an effect the other way counts as inactive or inconclusive.
# The line under a structure holds: miR-21 reporter | Nrf2 inh | A549 tox | GRP78 ERSR act | Nrf2 ARE act | Mito fusion act
- O=C(N/N=C/c1ccc[nH]1)c1ccc(COc2cccc3cccnc23)cc1
→ ? | ? | 7.3µM* | -2% | 0% | 13%
- O=C(N/N=C/c1ccc[nH]1)c1ccc(O)cc1
→ -42% | -7% | -15% | 2% | 0% | -4%
- O=C(N/N=C/c1ccccc1C(=O)O)c1ccc(COc2cccc3cccnc23)cc1
→ -10% | 1% | 5% | 3% | 0% | 1%
- O=C(CCl)Nc1ccc2c(c1)OCO2
→ ? | -1% | -3% | -4% | 14µM* | -5%
- CC(C)CC(=O)Nc1ccc2c(c1)OCO2
→ -17% | ? | 0% | 1% | 4% | 1%
- Cc1oc(-c2ccccc2Cl)nc1CS(=O)CC(=O)N1CCN(c2ccccc2)CC1 (configuration not stated)
→ 4% | -9% | -2% | -1% | 0% | 3%
- CC(NC(=O)C1CCN(C(=O)N2CCOc3ccccc32)CC1)c1ccccc1 (configuration not stated)
→ -19% | 16% | 1% | -3% | -1% | .
- CCN1/C(=C/c2ccc3ccccc3[n+]2CC)C=Cc2ccccc21
→ ? | 2.9µM* | 9.2µM* | -12% | -2% | -8%
- Cc1c(-c2nc(N)nc(Nc3ccccc3)n2)oc2ccccc12
→ -45% | 27% | -10% | -1% | 3% | 14µM*
- CCN(Cc1nc(-c2ccc(Cl)cc2)no1)CC1CCCO1 (configuration not stated)
→ -17% | 12% | 8% | -2% | 5% | 2%

# Profiles, looked up by structure.
# `CC(NC(=O)C1CCN(C(=O)N2CCOc3ccccc32)CC1)c1ccccc1` (configuration not stated) is listed as miR-21 reporter: -19%; Nrf2 inh: 16%; A549 tox: 1%; GRP78 ERSR act: -3%; Nrf2 ARE act: -1%; Mito fusion act: .
# `O=C(N/N=C/c1ccc[nH]1)c1ccc(O)cc1` is listed as miR-21 reporter: -42%; Nrf2 inh: -7%; A549 tox: -15%; GRP78 ERSR act: 2%; Nrf2 ARE act: 0%; Mito fusion act: -4%

# Next part.
# The line under a structure holds: miR-21 reporter | Nrf2 inh | A549 tox | GRP78 ERSR act | Nrf2 ARE act | Mito fusion act
- COc1ccc(Nc2cnn(-c3nc4ccccc4s3)c(=O)c2Cl)cc1
→ -35% | ? | -13% | -10% | 10µM* | -4%
- COc1ccc(S(=O)(=O)N2CCN(C(=O)c3cccc(S(=O)(=O)N4CCCC4)c3)CC2)cc1
→ . | . | . | -3% | 0% | .
- CNc1sc(C(=O)c2cccs2)c(N)c1-c1nc2ccccc2s1
→ -41% | ? | -21% | 4% | ? | 4%
- CNc1sc(C(=O)c2ccc(F)cc2)c(N)c1-c1nc2ccccc2s1
→ -44% | 11% | -18% | 10% | 11µM* | 7%
- c1ccc(SCCCCN2CCOCC2)cc1
→ -18% | 14% | 7% | 3% | 3% | 2%
- O=C(NCCCn1ccnc1)c1cc2nc(-c3ccc(Br)cc3)cc(C(F)(F)F)n2n1
→ 5% | 21µM* | ? | -16% | 2% | 2%
- CCCNC(=O)c1cc2nc(-c3ccc(Br)cc3)cc(C(F)(F)F)n2n1
→ -15% | -9% | 1% | -1% | 2% | .
- C=CCC(C(=O)OC)(C(=O)OC)c1ccc(C(F)(F)F)cc1[N+](=O)[O-]
→ -3% | -3% | -1% | 2% | 2% | -1%
- O=C(Nc1ccccc1)C(Cl)C(=O)c1ccccc1 (configuration not stated)
→ -28% | 2% | 2% | 5% | 14µM* | -2%
- CC(=O)C(Cl)C(=O)Nc1ccccc1 (configuration not stated)
→ 16% | ? | -4% | -8% | 7% | -2%
- CCCCn1c(C)cc2c(c1=O)[C@H]1O[C@](CCCC)(Cc3cc(OC)c(OC)cc31)O2
→ -1%[7.66 µM] | . | . | . | . | 0%[9.22 µM]
- O=C(Nc1nc(=O)c2ccccc2s1)c1ccccc1
→ -42% | ? | -2% | 0% | 2µM* | 3%
- CC(=O)Nc1nc(=O)c2ccccc2s1
→ 1% | -10% | -1% | -4% | ? | -7%
- COc1ccnc(Oc2cccc(C(F)(F)F)c2)c1C(=O)N/C=N/OCc1ccccc1F
→ 0% | 21µM* | -14% | -2% | 2% | 1%
- COc1ccnc(Oc2ccccc2)c1C(=O)N/C=N/OCc1ccccc1
→ 7% | -5% | 5% | -1% | 0% | 18%
- Cc1ccc(S(=O)(=O)CCC(=O)OCC(=O)NCC(=O)Nc2c(C)cc(C)cc2C)cc1
→ . | 5% | -2% | -3% | -1% | -1%
